PubChem BioAssay AID488899 (Broad Institute, 2010)
Only a part is listed here, and it is no random draw. Some salts or complexes appear as unconnected parts, following the source record. The source made the active and inactive calls.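 The calls were made as follows: active = mean inhibition across replicates of 60% or more, whatever share of single replicates reaches that level; inconclusive = some that reach 60%, reason not given; inactive = mean inhibition across replicates below 60%.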

Assay: inhibitors of MITF-dependent TRPM1 promoter reporter, primary screen, cell-based, SK-MEL-5, single point, luciferase (AID 488899)
Details: SK-MEL-5 TRPM1 promoter luciferase, 24 h; at 12.5 µM; stronger effect = higher value

| Compound | inhibition |
| --- | --- |
| CCOC(=O)c1ccc(NP(C)(=O)Oc2ccc(OC)cc2)cc1 (centres undefined) | inactive: -4.81% |
| CCOP(C)(=S)SCC(=O)NC(C)C(=O)O (centres undefined) | inactive: 4.63% |
| CP(=O)(Nc1ccccn1)Oc1ccc(Cl)cc1 (centres undefined) | inactive: -0.141% |
| CP(=O)(Oc1ccccc1)OC(c1ccccc1)C(F)(F)F (centres undefined) | inactive: 10.7% |
| Cc1cccc(C)c1OP(C)(=O)Nc1ccc(SC(F)(F)F)cc1 (centres undefined) | inactive: -15.8% |
| Cc1cc(C)cc(OP(C)(=O)Nc2ccc(SC(F)(F)F)cc2)c1 (centres undefined) | inactive: -2.24% |
| CCc1ccc(OP(C)(=O)N2CCN(c3ccc([N+](=O)[O-])cc3)CC2)cc1 (centres undefined) | inactive: 19.2% |
| CP(=O)(NC(=O)Nc1ccccc1)Oc1ccccc1 (centres undefined) | inactive: 0.331% |
| CP(=S)(Nn1cnnc1)Oc1ccccc1 (centres undefined) | inactive: 6.37% |
| CP(=O)(Nc1ccccc1Br)Oc1ccccc1 (centres undefined) | inactive: 3.49% |
| COc1ccccc1OP(C)(=O)Nc1ccccc1 (centres undefined) | inactive: -18.2% |
| Cc1ccc(NP(C)(=O)Oc2ccccc2)c(C)c1 (centres undefined) | inactive: 7.57% |
| COc1ccccc1OP(C)(=O)Nc1ccc(C)cc1 (centres undefined) | inactive: 16.9% |
| CCOC(=O)c1ccc(NP(C)(=O)Oc2ccccc2)cc1 (centres undefined) | inactive: 5.21% |
| Cc1cc(C)cc(OP(C)(N)=O)c1 (centres undefined) | inactive: 2.3% |
| COc1ccc(OP(C)(=O)Nc2cccc(F)c2)cc1 (centres undefined) | inactive: 8.02% |
| COc1ccccc1OP(C)(=O)Nc1cc(Cl)ccc1C (centres undefined) | inactive: 2.16% |
| O=[N+]([O-])c1cc([N+](=O)[O-])c(Nc2cccnc2)c([N+](=O)[O-])c1 | inactive: 1.91% |
| O=[N+]([O-])c1ccc2c(c1)C=Nc1ccccc1O2 | inactive: 11.8% |
| Cc1cccc(C)c1OP(C)(N)=O (centres undefined) | inactive: -1.87% |
| CC(C)(C)c1ccc(OP(C)(=O)Nc2ccc(SC(F)(F)F)cc2)cc1 (centres undefined) | inactive: 9.05% |
| CCN(CC)CCCOC(=O)C(O)(c1ccccc1)c1ccccc1 | inactive: 9.58% |
| Cc1ccc(C)c(NP(C)(=O)Oc2ccccc2)c1 (centres undefined) | inactive: -7.1% |

| Compound | inhibition |
| --- | --- |
| CP(=O)(Nc1cccc(Br)c1)Oc1ccccc1 (centres undefined) | inactive: -2.48% |
| Cc1cc(C)cc(OP(C)(=O)Nc2ccccn2)c1 (centres undefined) | inactive: -4.33% |
| COc1ccccc1OP(C)(=O)Nc1cccc(Br)c1 (centres undefined) | inactive: 6.15% |
| CCOC(=O)c1ccc(NP(C)(=O)Oc2cc(C)cc(C)c2)cc1 (centres undefined) | inactive: 3.48% |
| Cc1cc(C)cc(OP(C)(=O)Nc2ccc(C)cc2C)c1 (centres undefined) | inactive: -6.72% |
| CC1=NCCc2c1[nH]c1ccccc21.O=[N+]([O-])c1cc([N+](=O)[O-])c(O)c([N+](=O)[O-])c1 | inactive: 4.25% |
| O=C(O)c1cccc(Nc2c([N+](=O)[O-])cc([N+](=O)[O-])cc2[N+](=O)[O-])c1 | inactive: 3.55% |
| CN1CCCCC1COC(=O)C1(O)c2ccccc2CCc2ccccc21 (centres undefined) | inactive: 0.723% |
| COc1ccccc1OP(C)(=O)Nc1c(C)cccc1C (centres undefined) | inactive: 16.1% |
| CP(=O)(Nc1ccc(SC(F)(F)F)cc1)Oc1ccccc1 (centres undefined) | inactive: -6.44% |
| CCOC(=O)C(CC)C1=NC(C)(C)Cc2ccccc21.O=[N+]([O-])c1cc([N+](=O)[O-])c(O)c([N+](=O)[O-])c1 (centres undefined) | inactive: 3.55% |
| O=[N+]([O-])c1cc([N+](=O)[O-])c(Nc2nnnn2CCO)c([N+](=O)[O-])c1 | inactive: -8.47% |
| CC1=C2N=C(C=C3N=C(C(C)=C4[N-][C@@](C)([C@@H]5N=C1[C@](C)(CCC(=O)NC[C@@H](C)OP(=O)([O-])O[C@H]1[C@@H](O)[C@@H](n6cnc7cc(C)c(C)cc76)O[C@@H]1CO)[C@H]5CC(N)=O)[C@@](C)(CC(N)=O)[C@@H]4CCC(N)=O)[C@@](C)(CC(N)=O)[C@@H]3CCC(N)=O)C(C)(C)[C@@H]2CCC(N)=O.[C-]#N.[Co+3] | inactive: 6.76% |
| O=[N+]([O-])c1cc([N+](=O)[O-])c(-c2cnn(-c3ccccc3)c2)c([N+](=O)[O-])c1 | inactive: 36.9% |
| Cc1nc2ccc3ccccc3c2s1.O=[N+]([O-])c1cc([N+](=O)[O-])c(O)c([N+](=O)[O-])c1 | inactive: -4.7% |
| O=[N+]([O-])c1cc([N+](=O)[O-])c(-n2nnc3ccccc32)c([N+](=O)[O-])c1 | inactive: 0.784% |
| CP(=O)(Nc1ccc2c(c1)OCCO2)Oc1ccccc1 (centres undefined) | inactive: 44.9% |
| Cc1ccccc1NP(C)(=O)Nc1ccccc1C | inactive: -17.2% |
| CP(=O)(Nc1ccc(SC(F)(F)F)cc1)Oc1ccc(F)cc1 (centres undefined) | inactive: -6.41% |
| CCOP(C)(=S)SCC(=O)NC(C)(CC)C(=O)O (centres undefined) | inactive: -7.23% |
| O=[N+]([O-])c1ccc(OP2(=O)COCCO2)cc1 (centres undefined) | inactive: 6% |
| Cc1cc(-c2cccc3ccccc23)c(C)cn1.O=[N+]([O-])c1cc([N+](=O)[O-])c(O)c([N+](=O)[O-])c1 | inactive: 6.97% |
| O=[N+]([O-])c1cc([N+](=O)[O-])c(NCC2CCS(=O)(=O)C2)c([N+](=O)[O-])c1 (centres undefined) | inactive: 43.4% |

| Compound | inhibition |
| --- | --- |
| Cc1c(C(c2ccc3c(c2)OCO3)c2c(C)n(C)n(-c3ccccc3)c2=O)c(=O)n(-c2ccccc2)n1C.O=[N+]([O-])c1cc([N+](=O)[O-])c(O)c([N+](=O)[O-])c1 | inactive: -9.23% |
| COc1ccc(OP(C)(=O)Nc2cccc(Br)c2)cc1 (centres undefined) | inactive: 8.33% |
| CN(C)CCOC(=O)C(O)(c1ccccc1)C1CCCCC1 (centres undefined) | inactive: -9.75% |
| COc1ccc(NP(C)(=O)Oc2ccccc2OC)cc1 (centres undefined) | inactive: 21.2% |
| Cc1c([N+](=O)[O-])cc([N+](=O)[O-])c(Br)c1[N+](=O)[O-] | inactive: -0.734% |
| CCN(CC)CCCOC(=O)C(O)(c1ccccc1)C1CCCCC1 (centres undefined) | inactive: -11.1% |
| CP(=O)(Nc1ccccc1)Oc1ccc(F)cc1 (centres undefined) | inactive: 2.92% |
| O=[N+]([O-])c1cc([N+](=O)[O-])c(OC2CCCCC2O)c([N+](=O)[O-])c1 (centres undefined) | inactive: -8.33% |
| CCCCCOc1ccc(NP(C)(=O)Oc2ccc(Cl)cc2Cl)cc1 (centres undefined) | inactive: 3.78% |
| CCOC(=O)c1ccc(NP(C)(=O)Oc2ccc(F)cc2)cc1 (centres undefined) | inactive: -9.44% |
| COc1ccc(OP(C)(=O)Nc2ccc(SC(F)(F)F)cc2)cc1 (centres undefined) | inactive: 8.16% |
| O=C(OC1CN2CCC1CC2)c1ccc([N+](=O)[O-])cc1 (centres undefined) | inactive: 3.54% |
| O=C(OCCN1CCN(CCOCc2ccccc2)CC1)C(O)(c1ccccc1)c1ccccc1 | inactive: 8.84% |
| COc1ccc2c(c1O)-c1c(O)c(OC)cc3c1[C@H](C2)[N+](C)(C)CC3.O=[N+]([O-])c1cc([N+](=O)[O-])c([O-])c([N+](=O)[O-])c1[O-] | inactive: 20.2% |
| CP(=O)(Nc1ccccc1F)Oc1ccccc1 (centres undefined) | inactive: 3.7% |
| CC(C)c1ccc(OP(C)(=O)Nc2ccc(SC(F)(F)F)cc2)cc1 (centres undefined) | inactive: -1.3% |
| O=[N+]([O-])c1cc([N+](=O)[O-])c(Nc2ccccn2)c([N+](=O)[O-])c1 | active: 84.5% |
| Cc1c(NP(C)(=O)Oc2ccc(C(C)C)cc2)c(=O)n(-c2ccccc2)n1C (centres undefined) | inactive: 3.58% |
| COc1ccccc1OP(C)(=O)Nc1ccc(C)cc1C (centres undefined) | inactive: 7.49% |
| CP(=O)(Nc1ccccn1)Oc1ccccc1 (centres undefined) | inactive: 3.2% |
| CCc1ccc(OP(C)(=O)O)cc1 | inactive: -1.22% |
| COc1ccccc1OP(C)(=O)Nc1ccc(Br)cc1 (centres undefined) | inactive: 8.03% |
| COc1ccc(OP(C)(=O)Nc2ccccn2)cc1 (centres undefined) | inactive: 6.61% |

| Compound | inhibition |
| --- | --- |
| CN(C)CCOC(=O)C(O)(c1ccccc1)C1CCCC1 (centres undefined) | inactive: 2.77% |
| CP(=O)(OCCOc1ccccc1)OCCOc1ccccc1 | inactive: -4.38% |
| CP(=O)(Nc1ccc(Cl)cc1Cl)Oc1ccccc1 (centres undefined) | inactive: 3.25% |
| CCCCCCCCCCCCCCCC1C[N+](C)(C)CCOP(C)(=O)O1 (centres undefined) | inactive: 8.21% |
| Cc1cc(C)cc(OP(C)(=O)Nc2cccc(C(F)(F)F)c2)c1 (centres undefined) | inactive: -5.22% |
| O=C1C(O)=C([N+](=O)[O-])C(=O)C(O)=C1[N+](=O)[O-] | inactive: -3.26% |
| COc1ccccc1OP(C)(=O)Nc1ccc(C)c(C)c1 (centres undefined) | inactive: 8.56% |
| COc1ccc(OP(C)(=O)Nc2ccccc2Br)cc1 (centres undefined) | inactive: -4.32% |
| CCOC(=O)c1ccc(NP(C)(=O)Oc2ccc(Cl)cc2)cc1 (centres undefined) | inactive: -2% |
| CP(=O)(OC12CC3CC(CC(C3)C1)C2)OC12CC3CC(CC(C3)C1)C2 | inactive: 11.2% |
| CC(C)(C)c1ccc(OP(C)(=O)O)cc1 | inactive: 8.84% |
| COc1ccccc1OP(C)(=O)Nc1ccccc1Br (centres undefined) | inactive: 8.32% |
| CP(=O)(Nc1ccc(Cl)cc1)Oc1ccc(F)cc1 (centres undefined) | inactive: 1.9% |
| CN(C)C(=O)c1c([N+](=O)[O-])cc([N+](=O)[O-])cc1[N+](=O)[O-] | inactive: 46.1% |
| COc1ccc(OP(C)(=O)Nc2ccc(Br)cc2)cc1 (centres undefined) | inactive: -13.3% |
| CCN(CC)CC(O)COC(=O)C(O)(c1ccccc1)C1CCCCC1 (centres undefined) | inactive: -2.03% |
| O=C(OCCCN1CCCC1)C(O)(c1ccccc1)C1CCCCC1 (centres undefined) | inactive: -8.54% |
| COc1ccccc1OP(C)(=O)Nc1c(C)n(C)n(-c2ccccc2)c1=O (centres undefined) | inactive: -15.6% |
| CCc1ccc(OP(C)(=O)Nc2cccnc2)cc1 (centres undefined) | inactive: 3.6% |
| CP(=O)(Oc1ccccc1)N1CCOC1=O (centres undefined) | inactive: 4.05% |
